Target: T1, hCA I (Homo sapiens, UniProt P00915)
T1 construct: made in house
Assay: stopped-flow CO2 hydrase assay, hCA I
Type: biochemical

Sequences of proteins named here, by UniProt entry; tags and fusion partners are left off. A change or cut given only in a name is not applied to a line headed by its entry.
UniProt P00915: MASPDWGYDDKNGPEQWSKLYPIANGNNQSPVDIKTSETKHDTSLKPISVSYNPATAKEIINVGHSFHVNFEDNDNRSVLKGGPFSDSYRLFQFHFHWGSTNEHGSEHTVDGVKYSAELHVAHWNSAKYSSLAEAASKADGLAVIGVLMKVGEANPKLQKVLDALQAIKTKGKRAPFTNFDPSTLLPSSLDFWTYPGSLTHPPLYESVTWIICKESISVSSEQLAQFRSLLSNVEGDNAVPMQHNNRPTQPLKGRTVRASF

For `NCC(=O)Nc1ccc(S(N)(=O)=O)cc1` [compound 10, 2‐amino‐N‐(4‐sulfamoylphenyl)acetamide], the Ki was 390 nM.
